Yeast mating assay 2: variants of the scFv Ab-95

Values reported by Engelhart et al. 2022, doi:10.1038/s41597-022-01779-4 (FLAb copy).

All variants were tested on one target, the spike HR2 peptide PDVDLGDISGINAS (SARS-CoV-2).

The variants keep the heavy chain, the linker and the frameworks of Ab-95 (scFv order VH, a (GGGGS)3 linker, VL).
VH: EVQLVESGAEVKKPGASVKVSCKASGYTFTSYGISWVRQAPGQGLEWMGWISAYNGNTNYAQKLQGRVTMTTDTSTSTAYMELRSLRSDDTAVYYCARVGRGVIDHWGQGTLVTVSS
VL: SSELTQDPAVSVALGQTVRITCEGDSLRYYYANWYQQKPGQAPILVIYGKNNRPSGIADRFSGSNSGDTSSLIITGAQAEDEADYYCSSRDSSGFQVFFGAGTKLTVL

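The parent was found by panning a naive human phage display library on the peptide. AAYL52 was designed without a model: most single CDR substitutions and a random sample of double and triple ones. In AlphaSeq, yeast of one mating type display the scFv and yeast of the other type display the target. Pairs that bind mate more often; barcode pairs of the diploids are counted by sequencing. Read counts were normalised to the haploid input and turned into Kd by a linear fit to BCL2-family pairs of known affinity, for each replicate. There are three technical replicates.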

Variants are written as CDR1, CDR2 and CDR3 of the light chain (limits as in the source). Parent: EGDSLRYYYAN, GKNNRPS, SSRDSSGFQVF. Every variant below is changed at G94 of the VL (sequential numbering). Values are apparent Kd, the geometric mean of the replicates that gave a signal; lower means stronger binding. A pair that was not seen in any replicate is written "nd"; this usually means weak binding, but a binder can also be missed. Parent in this assay: reference entry 200 nM, copy in this library 180 nM.

| CDR-L1 | CDR-L2 | CDR-L3 | apparent Kd | replicates with signal | signal with controls |
|---|---|---|---|---|---|
| EGDSLRYRYAN | GKNNRPS | SSRDMSFFQVF | 1.4 µM | 3 of 3 | 2 of 9 |
| EGPSLRYYYAN | GKNNRPS | SSRDSLTFQVF | 350 µM | 1 of 3 | 4 of 9 |
| EQDSLRGYYAN | GKNNRPS | SSRDSSTFQVF | 15 µM | 3 of 3 | 0 of 9 |
| EGDSLRYYYAN | GKNNRPS | SSNDSIFFQVF | 58 µM | 2 of 3 | 4 of 9 |
| EGDSLRYYYAA | GKNNRPS | SFRDSSTFQVF | 9.9 µM | 1 of 3 | 1 of 9 |
| EGDSLRYYYAN | GKNNRPS | SSRDSSAQQVF | nd | 0 of 3 | 0 of 9 |
| QGDSLRYYYAN | GKCNRPS | SSRDSSMFQVF | nd | 0 of 3 | 1 of 9 |
| EGDSLRYYYMN | GKNNRPS | SSRDSSVFQVF | 9.2 µM | 3 of 3 | 4 of 9 |
| EGDSLRYYYAN | GKKNRPS | SSRDSSPFQMF | 2.4 µM | 3 of 3 | 0 of 9 |
| EFDSLRYYYAN | GKNNRPS | SSRDSEKFQVF | nd | 0 of 3 | 1 of 9 |
| EGDSLRYIYAN | GKNNRPS | SSRDSSHFSVF | nd | 0 of 3 | 2 of 9 |
| EGDSLRYIYAN | GKNNRPL | SSRDSSQFQVF | 370 µM | 1 of 3 | 1 of 9 |
| EGDSLRYQYAN | GKNNRPS | SSRDSSMFQNF | 690 nM | 2 of 3 | 0 of 9 |
| EGDSNRYYYAN | GKNNRPS | SSLDSSSFQVF | 16 µM | 3 of 3 | 1 of 9 |
| EWDCLRYYYAN | GKNNRPS | SSRDSSSFQVF | 9.1 µM | 1 of 3 | 4 of 9 |
| EGDSLRYYYAN | GKNNKPS | PSRDSSVFQVF | 2.2 µM | 3 of 3 | 6 of 9 |
| EGDSLRYYYAI | GKNNRPS | SSRDGSFFQVF | nd | 0 of 3 | 0 of 9 |
| QGDSLRYYYAN | GKNNRPS | SHRDSSFFQVF | 410 nM | 3 of 3 | 4 of 9 |
| EGDSLRYYYAN | GKNNRPS | SSRDSSMFAVR | 4.0 µM | 2 of 3 | 4 of 9 |
| EGDFLRYYYAN | GKNNRPS | NSRDSSEFQVF | 2.2 µM | 2 of 3 | 3 of 9 |
| EGDSLRYYYAN | GKNNRPS | SSRISSWFQVF | 130 nM | 3 of 3 | 4 of 9 |
| EGDSLRYYYAV | GKNNRPS | SSRDSSNFQVL | 9.7 µM | 1 of 3 | 3 of 9 |
| EGDSLRYAYAN | GKNNRPS | SSRDSSSVQVF | 59 nM | 3 of 3 | 5 of 9 |
| EGDSLRYYYAN | GKNNRPS | SSRDGSYFQVF | 520 nM | 3 of 3 | 4 of 9 |
| EGDSGRYYYAN | GKNNRPS | SMRDSSLFQVF | 29 µM | 1 of 3 | 2 of 9 |
| EGDSLRYYYAN | GKNNRHS | SSRDSSMFQVF | 4.1 µM | 3 of 3 | 7 of 9 |
| EGDSLRYYSAN | GKNNRPS | SCRDSSPFQVF | 3.2 µM | 1 of 3 | 2 of 9 |
| EGDSLVYYYAN | GKPNRPS | SSRDSSCFQVF | 210 µM | 1 of 3 | 3 of 9 |
| EGDSLRYYPAN | GYNNRPS | SSRDSSMFQVF | 6.1 µM | 2 of 3 | 3 of 9 |
| EGDSLRNYYAN | GKNNRPS | SSPDSSLFQVF | 200 nM | 3 of 3 | 6 of 9 |
| EGDSLRHYYAN | GKNNRPS | SSRDSSEFQVF | 510 nM | 3 of 3 | 4 of 9 |
| EGDSLRYYYAN | GKNNRPG | SSRDSSMFQVA | 780 nM | 3 of 3 | 2 of 9 |
| EGDSLRYYYAT | GKNNRPS | SSRDASEFQVF | 71 µM | 3 of 3 | 2 of 9 |
| EGDSLRYYTAN | GKNNRPS | SSRDSSWFQVF | nd | 0 of 3 | 1 of 9 |
| EGDSLRYYSAN | GKNNRPS | SSRDSSFFQVF | 25 µM | 2 of 3 | 3 of 9 |
| EGDSLRYYYAN | GKNKRPS | SSRDSHWFQVF | 21 µM | 3 of 3 | 2 of 9 |
| EIDSLRYYYAE | GKNNRPS | SSRDSSWFQVF | 79 µM | 2 of 3 | 3 of 9 |
| EGDSLRYPYAN | GKNNRPS | SSRDSSVFQVF | 12 µM | 3 of 3 | 3 of 9 |
| EGDELRYYYAH | GKNNRPS | SSRDSSYFQVF | 13 µM | 1 of 3 | 2 of 9 |
| EGDSLRYYYAN | GKNNRPS | SSRYSSTFQVY | 4.4 µM | 1 of 3 | 0 of 9 |
| FGDSLRYYYAN | GKNNRPS | SSRDSSLFQMF | 320 nM | 3 of 3 | 2 of 9 |
| KGDSLRYYYAN | WKNNRPS | SSRDSSTFQVF | 35 µM | 2 of 3 | 3 of 9 |
| EGDSLRYYYAN | GKNHRPS | SSRASSRFQVF | 35 µM | 1 of 3 | 2 of 9 |
| EGDSLRYYYAN | GKNNRPS | SDRDSSKFQKF | nd | 0 of 3 | 0 of 9 |
| EGDSLAYYYAN | GKNNRPS | SSRRSSDFQVF | nd | 0 of 3 | 0 of 9 |
| EGDSLRYYYAN | NKNNRPS | SSRDSQQFQVF | 15 µM | 1 of 3 | 3 of 9 |
| EGDSLRYYYAN | GKNNRPQ | SSRDSSRFQVM | 200 nM | 3 of 3 | 7 of 9 |
| EGDSLRYYYKN | GKNNRHS | SSRDSSWFQVF | 78 µM | 2 of 3 | 3 of 9 |
| EGDSLRYYYAN | GKNNKLS | SSRDSSMFQVF | nd | 0 of 3 | 1 of 9 |
| EGDSLRYYYAN | GKNNRPS | SFRDSSLFQEF | 7.5 µM | 2 of 3 | 1 of 9 |
| EGDSLRYYYAN | GKNNRPS | NRRDSSAFQVF | nd | 0 of 3 | 0 of 9 |
| EGDSLRYYYAN | GKNNLPC | SSRDSSDFQVF | 20 µM | 3 of 3 | 5 of 9 |
| IGDSLRYYYAN | GKNNRPS | SSRDSSSFQVF | 1.1 µM | 3 of 3 | 3 of 9 |
| EGDILRYYYAN | GKNNRPS | SSRDSSMDQVF | 31 µM | 2 of 3 | 4 of 9 |
| EGDELRYYYAN | GKNIRPS | SSRDSSTFQVF | 9.5 µM | 2 of 3 | 5 of 9 |
| EGDSLRYYYAN | GYNNRPS | SSRDSSCFIVF | 2.3 µM | 1 of 3 | 3 of 9 |
| EGDSLRYYYAN | GKNARPS | SSRDSLPFQVF | 92 nM | 3 of 3 | 1 of 9 |
| EGDSLRYYYAN | GKNNRPS | SSRMSVPFQVF | 160 nM | 3 of 3 | 1 of 9 |
| EGDSLRYYYAN | GKNNEPS | SSRDSSIHQVF | nd | 0 of 3 | 3 of 9 |

Repeated from above, the 4 best binders with a signal in all replicates:

CDR-L1,CDR-L2,CDR-L3,apparent Kd,replicates with signal,signal with controls
EGDSLRYAYAN,GKNNRPS,SSRDSSSVQVF,59 nM,3 of 3,5 of 9
EGDSLRYYYAN,GKNARPS,SSRDSLPFQVF,92 nM,3 of 3,1 of 9
EGDSLRYYYAN,GKNNRPS,SSRISSWFQVF,130 nM,3 of 3,4 of 9
EGDSLRYYYAN,GKNNRPS,SSRMSVPFQVF,160 nM,3 of 3,1 of 9

Background: pairings of library AAYL52 with three empty control strains gave a value in 28% of cases (median 8.2 µM, 5th percentile 800 nM). Values in that range, when seen in few replicates, are hard to tell from nonspecific mating. For each scFv, signals with the empty controls are counted beside the result.